What was measured:
[1] = tested on: Nedd4L mRNA in T cells from MS patients; test: Nedd4L mRNA expression, real-time PCR; type: cell-based, human; settings: T cells from 12 MS patients, normalized to GAPDH, Figure 2c; pU24-6A p: 0.0025, pc: 0.018; pU24-6B p: 0.004, pc: 0.028; Nedd4L RNAi p: 0.0015, pc: 0.011
[2] = tested on: total Smad2 in T cells from MS patients; test: Total Smad2 ELISA; type: cell-based, human; settings: T cells from 12 MS patients, Figure 2d; Nedd4L RNAi p: 0.004, pc: 0.028; pU24-6A p: 0.0027, pc: 0.019; pU24-6B p: 0.0034, pc: 0.024
[3] = tested on: phosphorylated Smad2 [pSpS465/467] in T cells from MS patients; test: Phosphorylated Smad2 ELISA; type: cell-based, human; settings: T cells from 12 MS patients, Figure 2e; Nedd4L RNAi p: 0.0026, pc: 0.018; pU24-6A p: 0.0015, pc: 0.011; pU24-6B p: 0.0039, pc: 0.027
[4] = tested on: HLA-C1 in 721.221-ICP47-C1 cells; test: HLA-C1 surface expression (stabilization) in 721.221-ICP47-C1 cells; type: cell-based, human; settings: 721.221-ICP47-C1 cells incubated overnight at 26 °C with peptide, gMFI, Figure 5a; pU24-6A p: 0.0012, pc: 0.004
[5] = tested on: NK cells from MS patients co-cultured with 721.221-ICP47-C1 cells; test: Granzyme B ELISPOT/Fluorospot assay; type: cell-based, human; settings: 721.221-ICP47-C1 cells incubated with pU24-6A; 0.2, 0.5, 1, or 4 h at 37 °C, Figure 5f
T cells from MS patients = test: EdU assay, T-cell proliferation; type: cell-based, human; settings: T cells from 12 MS patients, peptide transfection, Figure 2b, pU24-6A p: 0.003, pc: 0.021, pU24-6B p: 0.007, pc: 0.049 (One way ANOVA, Bonferroni)
actin = settings: cited from earlier work

Row | Compound | Nedd4L mRNA expression [1] | total Smad2 expression [2] | phosphorylated Smad2 expression [3] | HLA-C1 expression / stabilization [4] | GrB spots, KIR2DL2 negative [5] | degranulation cell frequency, KIR2DL2 positive [5] | T-cell proliferation (T cells from MS patients) | Effect of MBP phosphorylation on Kd of MBP-actin complex (actin)
1 | CSCC[C@H](N)C(=O)N[C@@H](CC(=O)O)C(=O)N1CCC[C@H]1C(=O)N1CCC[C@H]1C(=O)N[C@@H](CCCNC(=N)N)C(=O)N[C@H](C(=O)N1CCC[C@H]1C(=O)N1CCC[C@H]1C(=O)N1CCC[C@H]1C(=O)N[C@@H](CO)C(=O)N[C@@H](Cc1ccc(O)cc1)C(=O)N[C@@H](CO)C(=O)N[C@@H](CCC(=O)O)C(=O)N[C@H](C(=O)N[C@@H](CC(C)C)C(=O)O)C(C)C)[C@@H](C)OP(=O)(O)O [pU24-6A] | significantly decreased Nedd4L mRNA expression | increased expression of total and phosphorylated Smad2 protein | increased expression of total and phosphorylated Smad2 protein | increased expression of HLA-C1 | number of GrB spots increased linearly | lower degranulation cell frequency, which was independent of incubation time | – | –
2 | MBP: myelin basic protein, a key component of the myelin sheath (IVTPRTPPPSQGKGR) | did not modify Nedd4L mRNA expression | – | – | lower binding affinity for HLA-C1 | – | – | induced T-cell proliferation | without however affecting the dissociation constant of the MBP-actin complex

Reference: publication PMC9696605 (Viruses, 2022)
